Literature values in EP0853484B1, “NOVEL MU OPIOID RECEPTOR LIGANDS: AGONISTS AND ANTAGONISTS” (TORREY PINES INSTITUTE FOR MOLECULAR STUDIES, priority 1995, dated 1996).
Where two headings read alike, the source gives them in different places.

System: guinea-pig ileum
Details: GPI, cited from earlier work

For `C=CCN1CC[C@]23c4c5ccc(O)c4O[C@H]2C(=O)CC[C@@]3(O)[C@H]1C5` [naloxone], the Kb (read-out: Ke for naloxone as the antagonist, µ effects, µ receptor mediated effects) is given as 1 to 3 nM and the Kb (read-out: Ke for naloxone as the antagonist, κ effects, κ receptor mediated effects) is given as 20 to 30 nM.
